According to PubChem BioAssay (NCI):
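Values below derive from 48-hour exposures of cells grown in 96-well plates, with endpoints linearly interpolated between the two concentrations bracketing the appropriate inhibition level. Abbreviation: GI50, concentration required for 50% inhibition of growth. Definition used: TGI = concentration required for complete inhibition of growth.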

What was measured:
Experiment in all cases: DTP human tumour cell line panel, 48 h
EKVX NSCLC = system: EKVX NSCLC
HOP-62 NSCLC = system: HOP-62 NSCLC
HCT-116 colon = system: HCT-116 colon
TK-10 renal = system: TK-10 renal
OVCAR-4 ovarian = system: OVCAR-4 ovarian
SNB-19 CNS = system: SNB-19 CNS
HL-60(TB) leukemia = system: HL-60(TB) leukemia
M19-MEL melanoma = system: M19-MEL melanoma
HT29 colon = system: HT29 colon
SK-MEL-5 melanoma = system: SK-MEL-5 melanoma
DMS 114 small cell lung = system: DMS 114 small cell lung
OVCAR-8 ovarian = system: OVCAR-8 ovarian
NCI-H23 lung = system: NCI-H23 lung
SNB-78 CNS = system: SNB-78 CNS
OVCAR-3 ovarian = system: OVCAR-3 ovarian
SF-268 CNS = system: SF-268 CNS
LXFL 529 NSCLC = system: LXFL 529 NSCLC
NCI-H322M lung = system: NCI-H322M lung
786-0 renal = system: 786-0 renal
SF-539 CNS = system: SF-539 CNS
SW-620 colon = system: SW-620 colon
DLD-1 colon = system: DLD-1 colon
HOP-92 NSCLC = system: HOP-92 NSCLC
SN12C renal = system: SN12C renal
U251 CNS = system: U251 CNS
MOLT-4 leukemia = system: MOLT-4 leukemia
CAKI-1 renal = system: CAKI-1 renal
RPMI-8226 leukemia = system: RPMI-8226 leukemia
SK-MEL-28 melanoma = system: SK-MEL-28 melanoma
SNB-75 CNS = system: SNB-75 CNS
NCI-H460 lung = system: NCI-H460 lung
LOX IMVI melanoma = system: LOX IMVI melanoma
KM20L2 colon = system: KM20L2 colon
A498 renal = system: A498 renal
SK-MEL-2 melanoma = system: SK-MEL-2 melanoma
DMS 273 small cell lung = system: DMS 273 small cell lung
KM12 colon = system: KM12 colon
RXF-631 renal = system: RXF-631 renal
IGROV1 ovarian = system: IGROV1 ovarian
UACC-62 melanoma = system: UACC-62 melanoma
COLO 205 colon = system: COLO 205 colon
MALME-3M melanoma = system: MALME-3M melanoma
RXF 393 renal = system: RXF 393 renal
M14 melanoma = system: M14 melanoma
SR leukemia = system: SR leukemia
ACHN renal = system: ACHN renal
NCI-H522 lung = system: NCI-H522 lung
NCI-H226 lung = system: NCI-H226 lung
SK-OV-3 ovarian = system: SK-OV-3 ovarian
OVCAR-5 ovarian = system: OVCAR-5 ovarian
UACC-257 melanoma = system: UACC-257 melanoma
HCC-2998 colon = system: HCC-2998 colon
SF-295 CNS = system: SF-295 CNS
UO-31 renal = system: UO-31 renal
A549 NSCLC = system: A549 NSCLC

## CC1=CC2OC3CC4OC(=O)/C=C/C=C/C(C(C)O)OCCC(C)C(O)C(=O)OCC2(CC1O)C4(C)C31CO1 (stereo not given)
EKVX NSCLC
  GI50: 12.9 nM
  TGI: 40.1 nM
HOP-62 NSCLC
  GI50: 5.61 nM
  TGI: 22.6 nM
HCT-116 colon
  GI50: < 5 nM
  TGI: 7.62 nM
TK-10 renal
  GI50: 8.1 nM
  TGI: 24.6 nM
OVCAR-4 ovarian
  GI50: 5.45 nM
  TGI: 16.3 nM
SNB-19 CNS
  GI50: < 5 nM
  TGI: 26.7 nM
HL-60(TB) leukemia
  GI50: < 5 nM
  TGI: 50000 nM
M19-MEL melanoma
  GI50: < 5 nM
  TGI: 8 nM
HT29 colon
  GI50: 8.29 nM
  TGI: 27.7 nM
SK-MEL-5 melanoma
  GI50: < 5 nM
  TGI: < 5 nM
DMS 114 small cell lung
  GI50: < 5 nM
  TGI: < 5 nM
OVCAR-8 ovarian
  GI50: 11.2 nM
  TGI: 32.2 nM
NCI-H23 lung
  GI50: 6.88 nM
  TGI: 15.5 nM
SNB-78 CNS
  GI50: 11.1 nM
  TGI: 46.9 nM
OVCAR-3 ovarian
  GI50: < 5 nM
  TGI: 23.5 nM
SF-268 CNS
  GI50: 11.1 nM
  TGI: 33.4 nM
LXFL 529 NSCLC
  GI50: < 5 nM
  TGI: < 5 nM
NCI-H322M lung
  GI50: 22.2 nM
  TGI: 169 nM
786-0 renal
  GI50: 9.62 nM
  TGI: 34.1 nM
SF-539 CNS
  GI50: < 5 nM
  TGI: 17.8 nM
SW-620 colon
  GI50: 9.94 nM
  TGI: 50.7 nM
DLD-1 colon
  GI50: < 5 nM
  TGI: 15.9 nM
HOP-92 NSCLC
  GI50: 5.86 nM
  TGI: 20.6 nM
SN12C renal
  GI50: 23.7 nM
  TGI: 2220 nM
U251 CNS
  GI50: < 5 nM
  TGI: 67.6 nM
MOLT-4 leukemia
  GI50: < 5 nM
  TGI: 8.64 nM
CAKI-1 renal
  GI50: 10.8 nM
  TGI: 54.4 nM
RPMI-8226 leukemia
  GI50: < 5 nM
  TGI: 7.15 nM
SK-MEL-28 melanoma
  GI50: < 5 nM
  TGI: 9.44 nM
SNB-75 CNS
  GI50: 7.6 nM
  TGI: 17.2 nM
NCI-H460 lung
  GI50: < 5 nM
  TGI: 12.5 nM
LOX IMVI melanoma
  GI50: < 5 nM
  TGI: 6.23 nM
KM20L2 colon
  GI50: 11 nM
  TGI: 32.8 nM
A498 renal
  GI50: 8.25 nM
  TGI: 16.1 nM
SK-MEL-2 melanoma
  GI50: < 5 nM
  TGI: 13.4 nM
DMS 273 small cell lung
  GI50: < 5 nM
  TGI: 11.9 nM
KM12 colon
  GI50: < 5 nM
  TGI: 14.7 nM
RXF-631 renal
  GI50: 11.8 nM
  TGI: 32.7 nM
IGROV1 ovarian
  GI50: < 5 nM
  TGI: 30.1 nM
UACC-62 melanoma
  GI50: 8.12 nM
  TGI: 17.3 nM
COLO 205 colon
  GI50: 8.57 nM
  TGI: 16.9 nM
MALME-3M melanoma
  GI50: < 5 nM
  TGI: 5.61 nM
RXF 393 renal
  GI50: 6.89 nM
  TGI: 14.3 nM
M14 melanoma
  GI50: 5.47 nM
  TGI: 11.9 nM
SR leukemia
  GI50: < 5 nM
  TGI: 6.53 nM
ACHN renal
  GI50: 14.8 nM
  TGI: 69.8 nM
NCI-H522 lung
  GI50: < 5 nM
  TGI: < 5 nM
NCI-H226 lung
  GI50: < 5 nM
  TGI: < 5 nM
SK-OV-3 ovarian
  GI50: 12.5 nM
  TGI: 41.5 nM
OVCAR-5 ovarian
  GI50: 9.36 nM
  TGI: 27.7 nM
UACC-257 melanoma
  GI50: 8.07 nM
  TGI: 17.5 nM
HCC-2998 colon
  GI50: < 5 nM
  TGI: 6.79 nM
SF-295 CNS
  GI50: 13.8 nM
  TGI: 49.8 nM
UO-31 renal
  GI50: 61.7 nM
  TGI: 168 nM
A549 NSCLC
  GI50: 16.8 nM
  TGI: 129 nM
